According to ChEMBL document CHEMBL4004863, “Design, synthesis, biological evaluation and X-ray structural studies of potent human dihydroorotate dehydrogenase inhibitors based on hydroxylated azole scaffolds” (Eur J Med Chem, 2017):

Tested on: Jurkat
Assay: Antiproliferative activity against human Jurkat T cells assessed as DNA content after 72 hrs by Hoechst 33258 dye based fluorometric method
Type: functional, cell-based
Summary of the method: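 Jurkat T cells grown in X-VIVO 15 with 10% FBS and antibiotic-antimycotic at 37 °C, 5% CO2, passages 5–10, mycoplasma-free, STR-authenticated. IC50 came from nonlinear regression, mean ± SE of three experiments. Uridine, where added, was at 100 μM.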

In the case of `C/C(O)=C(\C#N)C(=O)Nc1ccc(C(F)(F)F)cc1` [TERIFLUNOMIDE], the IC50 is reported as 43.2 µM.
